We go through one substance from patent publication US5585095A, “Method to enhance thrombomodulin APC generation using cationic proteins” (Regents of the University of Minnesota, priority 1993, dated 1996).

Amino acid sequences for entries named in this document (tags omitted). Residues count along the entry.
UniProt P07204, 19-515: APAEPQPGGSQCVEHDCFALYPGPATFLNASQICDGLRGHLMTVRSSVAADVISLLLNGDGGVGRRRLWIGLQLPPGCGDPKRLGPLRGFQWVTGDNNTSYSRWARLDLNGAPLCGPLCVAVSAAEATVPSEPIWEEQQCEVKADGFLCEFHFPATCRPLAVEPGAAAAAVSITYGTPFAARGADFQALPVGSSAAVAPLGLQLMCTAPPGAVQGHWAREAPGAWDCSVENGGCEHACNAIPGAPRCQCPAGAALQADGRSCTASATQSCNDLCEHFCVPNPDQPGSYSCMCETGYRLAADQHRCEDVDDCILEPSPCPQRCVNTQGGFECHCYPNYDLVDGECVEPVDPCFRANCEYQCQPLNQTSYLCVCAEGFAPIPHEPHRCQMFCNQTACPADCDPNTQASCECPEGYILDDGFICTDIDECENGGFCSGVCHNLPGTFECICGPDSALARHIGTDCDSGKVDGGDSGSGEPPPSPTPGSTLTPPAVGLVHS

For the series, the target named is T1, GAG+ TM (Homo sapiens, UniProt P07204).
T1 construct: encompassing the entire extracellular domain ([amino acids 1-497], which includes the serine 492 glycosylation site); host or cells: Chinese Hamster Ovary cells
As to the kind of experiment: APC generation by recombinant GAG+ TM with thrombin and protein C (chromogenic S-2366). The class given is biochemical. The conditions noted are these: conditions of Example 1, GAG+ TM, FIG. 4. The protocol: Human PF4 was purified from outdated platelets by THR stimulation, NH4 SO4 precipitation, heparin affinity chromatography, and Scphadex G-100 chromatography using a technique described in T. F. Deuel et al., Proc. Natl. Acad. Sci. USA, 74, 2256-2258 (1977), which is incorporated herein by reference. Dose-response studies were then performed with increasing amounts of PF4 to assay its effect upon the ability of three TM preps to generate APC from protein C. […]
For each type of TM, 2 nM TM and 500 nM protein C were incubated together in the presence of 1 mM (i.e., physiologic) Ca^2+ with or without PF4, and the generation of APC initiated by the addition of 2 nM THR in 50 mM Tris, 100 mM NaCl, pH 7.4 at 37° C. […] APC was quantified spectrophotometrically with the chromogenic substrate S-2366 (obtained from Kabi Vitrum, Franklin, Ohio). […] Values obtained from these controls were then subtracted from the rates measured for wells containing monolayers. […]

albumin: anionic protein: the “acceleratory effect upon APC generation by thrombomodulin (GAG+ TM)” value is given as “no such effect”.
